# Assay results reported in patent US9932333B2, “Benzothiazole compound and medicine containing same” (JAPAN SCIENCE AND TECHNOLOGY AGENCY, priority 2014, dated 2018).
# Chains of the proteins cited; added tags and fusions are not shown. Residues count along the entry.
# UniProt P05067, 672-713 limits assumed: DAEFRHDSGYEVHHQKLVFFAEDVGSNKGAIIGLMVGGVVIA
# Biological target: Aβ1-42 aggregated in advance (Homo sapiens, UniProt P05067)
# Assay: Aβ affinity (Kd association curve from fluorescence intensity)
# Type: binding
# Conditions: aggregated Aβ1-42 0.5 μM, phosphate buffer pH 7.4, room temperature 1 hour
# From the text: For compound (1a), the excitation wavelength was set to 460 nm, and the fluorescence wavelength was set to 515 nm. A Kd association curve was obtained from the fluorescence intensity using KaleidaGraph 4.5 (Synergy Software, Reading, Pa.).
smiles,measurement,value
"Cc1ccc2c(c1)sc(-c1ccc(N(C)C)cc1)[n+]2C [thioflavin T, reference compound]",Kd,2.9 µM
